Experimental data reported in patent publication US8268848B2, “Cyclopropane compound” (Eisai R&D Management Co., Ltd., priority 2010, dated 2012).

Amino acid sequences for entries named in this document (tags omitted).
UniProt O43614, whole entry: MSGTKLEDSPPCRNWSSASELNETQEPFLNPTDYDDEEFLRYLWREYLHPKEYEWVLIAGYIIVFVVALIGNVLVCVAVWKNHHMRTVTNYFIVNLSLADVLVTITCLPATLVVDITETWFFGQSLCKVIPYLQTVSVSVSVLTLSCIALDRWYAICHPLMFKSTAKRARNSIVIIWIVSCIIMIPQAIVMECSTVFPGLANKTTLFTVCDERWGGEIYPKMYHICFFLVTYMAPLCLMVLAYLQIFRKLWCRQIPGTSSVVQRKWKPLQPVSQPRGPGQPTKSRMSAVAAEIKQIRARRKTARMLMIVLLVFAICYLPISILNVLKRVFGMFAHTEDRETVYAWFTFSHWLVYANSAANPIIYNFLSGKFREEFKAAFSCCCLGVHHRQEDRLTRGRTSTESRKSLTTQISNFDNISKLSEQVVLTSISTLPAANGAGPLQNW
UniProt O43613, whole entry: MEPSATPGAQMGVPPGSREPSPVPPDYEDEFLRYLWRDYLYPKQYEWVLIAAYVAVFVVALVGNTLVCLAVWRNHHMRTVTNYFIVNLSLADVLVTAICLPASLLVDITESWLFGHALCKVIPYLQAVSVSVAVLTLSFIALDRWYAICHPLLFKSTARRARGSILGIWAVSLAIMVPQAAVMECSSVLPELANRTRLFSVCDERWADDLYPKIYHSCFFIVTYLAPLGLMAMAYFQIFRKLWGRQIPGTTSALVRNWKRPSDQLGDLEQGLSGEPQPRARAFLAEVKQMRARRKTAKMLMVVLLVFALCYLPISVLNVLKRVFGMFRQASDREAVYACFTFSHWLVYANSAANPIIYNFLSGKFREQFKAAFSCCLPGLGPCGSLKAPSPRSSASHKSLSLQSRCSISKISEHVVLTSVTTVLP

Key:
OX2 = OX2 (Homo sapiens, UniProt O43614); assay: Measurement of orexin receptor-binding ability ([125I]-OX-A, cell membranes, OX2); conditions: read-out: OX2 (IC50) nM; membranes of recombinant CHO cells expressing OX2, 0.2 nM [125I]-OX-A
OX1 = OX1 (Homo sapiens, UniProt O43613); assay: Measurement of orexin receptor-binding ability ([125I]-OX-A, cell membranes, OX1); conditions: read-out: OX1 (IC50) nM; membranes of recombinant CHO cells expressing OX1, 0.2 nM [125I]-OX-A

Work on Cc1ncc(OCC2(c3cccc(F)c3)CC2C(=O)Nc2ccc(Cl)cn2)c(C)n1 (stereo not drawn) yielded an IC50 (OX2) of 10 nM and an IC50 (OX1) of 18 nM.

Cc1ncc(OC[C@@]2(c3ccc(F)cc3)C[C@H]2C(=O)Nc2cc(Cl)ccn2)c(C)n1 showed an IC50 (OX2) of 73 nM.
